Drawing on patent US4713369A, “Oligopeptidylargininol derivatives and their homologs, a process for their preparation, their use and agents containing them” (Behringwerke Aktiengellschaft, priority 1985, dated 1987), this text covers IC50 for 1 molecule.

This assay has as its target human α-thrombin (Homo sapiens, UniProt P00734). The settings on record: read-out: final concentration at which 50% inhibition was reached; human α-thrombin 0.28 UI, tris buffer pH 8.2, 37° C., 5 min incubation, extinction at 405 nm.

Take `N=C(N)NCCC[C@@H](CO)NC(=O)[C@@H]1CCCN1C(=O)[C@H](N)Cc1ccccc1.O=C(O)C(F)(F)F.O=C(O)C(F)(F)F` [D-Phe-Pro-argininol ditrifluoroacetate, D-Phe-Pro-Arg-CH2 OH×2CF3 COOH]: the IC50 was 0.15 ± 0.01 µM.
